Results: ChEMBL document CHEMBL3102699, “Synthesis and evaluation of 4-substituted piperidines and piperazines as balanced affinity μ opioid receptor (MOR) agonist/δ opioid receptor (DOR) antagonist ligands” (Bioorg Med Chem Lett, 2014)
Calls of active or inactive are those of the source. The rule behind the calls is not given here.

Sequences of proteins named here, by UniProt entry; tags and fusion partners are left off.
UniProt P33533, whole entry: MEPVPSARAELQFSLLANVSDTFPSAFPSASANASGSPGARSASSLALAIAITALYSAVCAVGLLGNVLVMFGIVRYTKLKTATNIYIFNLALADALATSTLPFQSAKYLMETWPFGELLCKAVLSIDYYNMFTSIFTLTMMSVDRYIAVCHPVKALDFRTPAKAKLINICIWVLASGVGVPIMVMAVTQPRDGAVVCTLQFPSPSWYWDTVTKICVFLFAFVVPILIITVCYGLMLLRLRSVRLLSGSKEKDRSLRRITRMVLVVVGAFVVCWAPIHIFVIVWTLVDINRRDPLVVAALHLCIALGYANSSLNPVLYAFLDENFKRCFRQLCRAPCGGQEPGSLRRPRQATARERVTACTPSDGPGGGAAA

These compounds were tested against Delta-type opioid receptor (Rattus norvegicus) (UniProt P33533) (assay: Agonist activity at rat delta opioid receptor expressed in rat C6 cells assessed as stimulation of [35S]-GTPgammaS binding at 10 uM after 1 hr by liquid scintillation counting analysis relative to DPDPE).
Assay type: functional, cell-based

| SMILES | %max |
| --- | --- |
| Cc1cc(O)cc(C)c1C[C@H](N)C(=O)N1CCN(CCC(c2ccccc2)c2ccccc2)CC1 | inactive |
| Cc1cc(O)cc(C)c1C[C@H](N)C(=O)N1CCN(CCCc2ccccc2)CC1 | inactive |
| Cc1cc(O)cc(C)c1C[C@H](N)C(=O)N1CCC(CCCc2ccccc2)CC1 | inactive |
| Cc1cc(O)cc(C)c1C[C@H](N)C(=O)N1CCN(CCCCc2ccccc2)CC1 | inactive |
| Cc1cc(O)cc(C)c1C[C@H](N)C(=O)N1CCN(C/C=C/Cc2ccccc2)CC1 | inactive |
| Cc1cc(O)cc(C)c1C[C@H](N)C(=O)N1CCC(Cc2ccccc2)c2ccccc21 (some centres undefined) | inactive |
| Cc1cc(O)cc(C)c1C[C@H](N)C(=O)N1CCN(C/C=C\Cc2ccccc2)CC1 | inactive |
| Cc1cc(O)cc(C)c1C[C@H](N)C(=O)N1CCN(CCCCCc2ccccc2)CC1 | inactive |
| Cc1cc(O)cc(C)c1C[C@H](N)C(=O)N1CCC(Cc2ccccc2)CC1 | inactive |
